Assay results: ChEMBL document CHEMBL3727343, “Agent for inhibiting odor of pyrazine derivatives” (2013)

Biological target: T1, Olfactory receptor 5K1 (Homo sapiens) (UniProt Q8NHB7)
T1 sequence (whole entry): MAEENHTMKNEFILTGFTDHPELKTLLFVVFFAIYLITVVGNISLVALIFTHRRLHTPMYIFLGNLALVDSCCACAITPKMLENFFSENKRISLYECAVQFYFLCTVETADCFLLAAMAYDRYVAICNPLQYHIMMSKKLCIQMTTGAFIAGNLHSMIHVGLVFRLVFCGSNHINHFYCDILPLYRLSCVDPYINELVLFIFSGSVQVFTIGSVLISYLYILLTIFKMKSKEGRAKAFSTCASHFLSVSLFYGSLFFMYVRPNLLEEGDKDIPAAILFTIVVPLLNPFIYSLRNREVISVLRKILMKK
Experiment: Antagonist activity at human OR5K1 expressed in HEK293 cells assessed as inhibition of 2,6-dimethylpyrazine-induced response at 100 uM by luciferase reporter gene assay
Type: functional, cell-based

`CC(=O)/C=C/C1C(C)=CCCC1(C)C` (stereo unspecified) showed an inhibition greater than 75%.
